{"source": "ChEMBL document CHEMBL1155233", "about": "“Structure mechanism insights and the role of nitric oxide donation guide the development of oxadiazole-2-oxides as therapeutic agents against schistosomiasis” (J Med Chem, 2009)", "key": {"Liver microsomes [1]": {"test_system": "Liver microsomes", "assay": "Metabolic stability in human liver microsomes assessed as compound remaining over 60 mins in presence of NADPH", "conditions": "1 h"}, "Liver microsomes [2]": {"test_system": "Liver microsomes", "assay": "Metabolic stability in human liver microsomes assessed as compound remaining over 60 mins in absence of NADPH", "conditions": "1 h"}}}
{"smiles": "N#Cc1c(-c2ccc(-c3no[n+]([O-])c3C#N)s2)no[n+]1[O-]", "values": [{"measurement": "Stability", "setting": "Liver microsomes [1]", "result": 3, "unit": "%"}, {"measurement": "Stability", "setting": "Liver microsomes [2]", "result": 56, "unit": "%"}]}
